Data on one compound can be found in ChEMBL document CHEMBL2384999, “Discovery of a potent, dual serotonin and norepinephrine reuptake inhibitor” (ACS Med Chem Lett, 2013).

Amino acid sequences for entries named in this document (tags omitted).
UniProt P23975, whole entry: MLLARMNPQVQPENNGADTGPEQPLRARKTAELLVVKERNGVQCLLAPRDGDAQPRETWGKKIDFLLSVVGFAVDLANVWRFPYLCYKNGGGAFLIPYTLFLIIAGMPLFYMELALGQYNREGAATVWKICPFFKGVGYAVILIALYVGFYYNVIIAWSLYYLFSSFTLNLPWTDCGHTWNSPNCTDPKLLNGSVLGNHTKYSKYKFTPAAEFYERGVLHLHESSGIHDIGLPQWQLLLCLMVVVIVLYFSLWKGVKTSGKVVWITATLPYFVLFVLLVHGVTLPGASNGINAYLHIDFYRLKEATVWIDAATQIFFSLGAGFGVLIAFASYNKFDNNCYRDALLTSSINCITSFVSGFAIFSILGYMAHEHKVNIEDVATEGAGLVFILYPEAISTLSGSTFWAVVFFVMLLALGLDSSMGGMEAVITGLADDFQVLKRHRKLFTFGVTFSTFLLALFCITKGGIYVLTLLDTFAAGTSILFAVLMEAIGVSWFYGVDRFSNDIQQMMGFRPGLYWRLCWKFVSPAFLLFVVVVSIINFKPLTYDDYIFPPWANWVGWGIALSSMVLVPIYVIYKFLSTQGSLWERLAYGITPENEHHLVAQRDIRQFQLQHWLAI
UniProt Q01959, whole entry: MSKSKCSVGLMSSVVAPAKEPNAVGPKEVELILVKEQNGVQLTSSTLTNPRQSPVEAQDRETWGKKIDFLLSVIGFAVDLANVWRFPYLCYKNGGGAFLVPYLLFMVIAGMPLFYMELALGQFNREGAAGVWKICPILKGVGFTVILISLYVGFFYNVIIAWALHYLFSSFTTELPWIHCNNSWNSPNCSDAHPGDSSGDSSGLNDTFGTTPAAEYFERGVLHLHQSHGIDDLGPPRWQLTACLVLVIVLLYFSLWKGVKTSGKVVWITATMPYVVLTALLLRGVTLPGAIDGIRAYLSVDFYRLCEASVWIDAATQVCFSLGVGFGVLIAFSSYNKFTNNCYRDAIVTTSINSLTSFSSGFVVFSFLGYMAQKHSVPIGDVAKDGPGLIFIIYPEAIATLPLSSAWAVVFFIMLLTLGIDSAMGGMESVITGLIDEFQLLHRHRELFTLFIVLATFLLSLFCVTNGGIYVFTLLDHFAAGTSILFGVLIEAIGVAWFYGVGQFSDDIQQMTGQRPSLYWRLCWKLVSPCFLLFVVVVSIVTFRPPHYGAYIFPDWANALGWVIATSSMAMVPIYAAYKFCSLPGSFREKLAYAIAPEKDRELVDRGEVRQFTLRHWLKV
UniProt P31645, whole entry: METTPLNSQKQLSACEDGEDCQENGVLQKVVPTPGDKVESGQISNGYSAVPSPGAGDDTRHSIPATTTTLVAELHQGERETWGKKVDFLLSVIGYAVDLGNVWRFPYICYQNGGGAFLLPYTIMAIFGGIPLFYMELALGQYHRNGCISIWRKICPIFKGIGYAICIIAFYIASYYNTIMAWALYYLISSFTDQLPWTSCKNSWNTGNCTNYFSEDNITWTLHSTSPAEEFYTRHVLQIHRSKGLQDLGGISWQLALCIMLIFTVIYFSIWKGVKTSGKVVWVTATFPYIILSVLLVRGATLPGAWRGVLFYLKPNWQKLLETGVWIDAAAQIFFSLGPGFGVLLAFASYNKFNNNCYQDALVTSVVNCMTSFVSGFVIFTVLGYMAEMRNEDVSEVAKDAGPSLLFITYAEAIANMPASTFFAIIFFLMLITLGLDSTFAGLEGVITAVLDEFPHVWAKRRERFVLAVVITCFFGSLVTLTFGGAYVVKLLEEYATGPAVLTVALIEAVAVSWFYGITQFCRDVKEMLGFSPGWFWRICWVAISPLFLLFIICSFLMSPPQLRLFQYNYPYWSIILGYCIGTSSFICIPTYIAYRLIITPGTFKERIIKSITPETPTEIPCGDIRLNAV

Where only a bound is given, the exact number is not on record here.

Common to all, as to experiment: biochemical
Assay [1] concerns the target Sodium-dependent noradrenaline transporter (Homo sapiens, UniProt P23975).
For assay [2], the target named is Sodium-dependent dopamine transporter (Homo sapiens, UniProt Q01959).
Assay [3] addresses Sodium-dependent serotonin transporter (Homo sapiens, UniProt P31645). It counts as cell-based, HEK293.

What is called IC50 is the point on the concentration scale where inhibition reaches its midpoint. The low end stands for greater potency in that assay, the high end for weaker potency in that assay. For orientation: Ki means a measure of affinity in units of concentration, obtained from inhibition or displacement. High values mean weaker binding, low ones tighter binding. In the case of `CN(C)CC(c1ccc(O)cc1)C1(O)CCCCC1` (stereo not given) [DESVENLAFAXINE], the results for the IC50 in assay [1] and in assay [3] were 1500 nM and 17 nM, respectively. In addition, the inhibition constant Ki is > 650 nM in assay [1], > 854 nM in assay [2] and 15 nM in assay [3].
